Results as given in patent US20250295627A1 (Leibniz-Institut Fuer Neurobiologie, priority 2022, published 2025).

Key:
[1] = target: Jacob-LMO4 binding (Homo sapiens, UniProt P61968)
[2] = target: LMO4-CREB binding (Homo sapiens, UniProt P61968)
[3] = target: T1, GST-LMO4 (Homo sapiens, UniProt P61968); test: Isothermal titration calorimetry (ITC); assay type: binding
T1 construct: made in house; host or cells: E. coli BL21 (DE3)
T1 sequence (P61968 1-165): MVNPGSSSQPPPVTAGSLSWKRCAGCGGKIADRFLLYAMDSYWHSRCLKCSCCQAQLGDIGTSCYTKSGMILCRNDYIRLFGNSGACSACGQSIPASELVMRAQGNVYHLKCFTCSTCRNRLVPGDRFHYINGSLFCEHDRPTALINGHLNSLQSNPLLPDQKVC

O=[N+]([O-])c1ccc([As](=O)(O)O)cc1 [Nitarsone, (4-nitrophenyl) arsonic acid]
binding of Jacob to LMO4 [1]: completely abolished binding of Jacob to LMO4
displacement of CREB from LMO4 [2]: did not displace CREB from LMO4
number of binding sites in LMO4 [3]: single binding site
